Antibody variant affinities, Ab-14 light chain, assay 1

Data: MIT Lincoln Laboratory AlphaSeq set, Engelhart et al. 2022, doi:10.1038/s41597-022-01779-4, as distributed in FLAb.

Target peptide (SARS-CoV-2 spike, HR2 region): PDVDLGDISGINAS

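Library AAYL50 holds single substitutions and randomly drawn double and triple substitutions in the CDRs. The assay is AlphaSeq: two haploid yeast populations carry antibody and antigen on their surface. Binding brings cells together so that they mate, and sequencing counts the barcode pairs among the diploids. Scores were corrected for input abundance and mapped to Kd with protein pairs of known affinity run in the same pool. There are three technical replicates.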

Parent scFv Ab-14: VH joined to VL by the linker GGGGSGGGGSGGGGS. Changes lie in the light chain CDRs alone.
VH: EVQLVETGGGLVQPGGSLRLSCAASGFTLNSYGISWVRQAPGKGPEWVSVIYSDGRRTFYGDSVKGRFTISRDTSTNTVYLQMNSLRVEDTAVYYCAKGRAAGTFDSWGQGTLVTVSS
VL: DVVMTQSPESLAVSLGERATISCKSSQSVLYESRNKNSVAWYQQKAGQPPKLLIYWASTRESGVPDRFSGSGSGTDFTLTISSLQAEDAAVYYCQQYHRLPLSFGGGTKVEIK

The parent's light chain CDRs are KSSQSVLYESRNKNSVA, WASTRES, QQYHRLPLS; each variant's own CDRs replace them letter for letter.
Scale: log10 of Kd in nM, estimated from mating counts; low values are strong binders.
Averages over replicates are reported, and they cover detected replicates only.
An entry "nd" has no value in the source: the pair was not observed among the diploids in that replicate. This suggests poor binding but is not conclusive.
Empty control strains, which show no peptide, gave a signal in 18% of pairings with library AAYL50; the median was 4.19 and 95% of these signals were weaker than 2.99. No background was subtracted. Also given: how often the same scFv was detected with the empty control strains, with their mean in brackets.

CDR-L1 | CDR-L2 | CDR-L3 | log10 Kd, replicates | mean log10 Kd (nM) | empty controls
KSSQSVLYESRSKNSVK | WASTRES | QQYRRLPLS | nd / nd / nd | nd | 2/9 (4.03)
KSSQSVLYESRNKNYVA | WASTRES | EQFHRLPLS | nd / nd / nd | nd | 0/9
KSSQSVLYESDNKNSVA | WFSTRES | QQNHRLPLS | 0.68 / 0.62 / 0.86 | 0.72 | 1/9 (4.66)
KSSKSVLYESRNKNSGA | WASTREA | QQYHRLPLS | 5.06 / nd / nd | 5.06 | 2/9 (3.30)
KSSQSVLYESRNKNSHA | WASTEES | QQYHRLPLS | nd / 3.68 / nd | 3.68 | 1/9 (4.55)
KDSQSVLYESRNKNDVA | WASTRES | QQYHWLPLS | 1.73 / 1.54 / 1.69 | 1.65 | 3/9 (4.51)
KSSQSILYESRYKNSVA | WASTRES | QQYHRLPLS | 1.14 / 1.23 / 1.27 | 1.21 | 2/9 (4.11)
KSSQSVLYESRNKNGVA | WASTRES | KQYHRLPLS | nd / nd / nd | nd | 0/9
KSSQSVLYESRNKNIVA | WASTRYS | QQYHRLPGS | nd / nd / nd | nd | 3/9 (4.37)
KSSQSVLGESRNKNSVA | WASTREI | QFYHRLPLS | 0.84 / 0.93 / 1.09 | 0.95 | 0/9
KSSQSVWYESRNKNSVA | WASTRES | QQYHHMPLS | 0.17 / 0.78 / 0.24 | 0.40 | 0/9
KSSQSVLYESRNKNEVL | WASTRES | QQYHRLPLE | nd / 5.27 / 5.10 | 5.18 | 2/9 (4.09)
KSSQSVLTESDNKNSAA | WASTRES | QQYHRLPLS | 3.15 / 2.86 / 2.91 | 2.97 | 7/9 (4.74)
KSSQSVLCEKRNKNSVA | WASIRES | QQYHRLPLS | nd / nd / nd | nd | 0/9
KSSQSVLYESRVKNEVA | WASTNES | QQYHRLPLS | nd / 3.66 / 5.84 | 4.75 | 1/9 (4.13)
KSSQSRLYEDRNANSVA | WASTRES | QQYHRLPLS | 1.76 / 1.81 / 2.04 | 1.87 | 2/9 (5.36)
KSSQSHDYESRNKNSVA | WALTRES | QQYHRLPLS | 2.37 / 3.77 / nd | 3.07 | 2/9 (4.00)
KSSPSVLYESRNVNSVN | WASTRES | QQYHRLPLS | 5.59 / nd / nd | 5.59 | 4/9 (4.29)
KSSQSVLYESRNKCSVA | WASYRES | QQYHRLHLS | nd / nd / 3.38 | 3.38 | 0/9
KSAQSVLYPSRNKNSVA | WASTRES | QQYHRLSLS | nd / nd / nd | nd | 1/9 (4.20)
KSSQSVLYESRNKNSVA | WASTRES | QRYHRIRLS | nd / 3.81 / nd | 3.81 | 0/9
KSSQSVLYESINKNIVA | WASTREM | QQYHRLPLS | nd / nd / 3.33 | 3.33 | 0/9
KSSYSVLYESLNKNSVA | WASTRES | QQYHRLPCS | nd / nd / nd | nd | 0/9
KSSQSCLYESRNTNSVA | WASTRES | QQYHREPLS | nd / nd / nd | nd | 1/9 (4.27)
KSSQSVLYESTNKNSTA | WASTREY | QQYHRLPLS | nd / nd / nd | nd | 1/9 (3.67)
KDSQSVLYESRNKNSVA | WASTRES | QQYHRLPLS | 1.98 / 2.09 / 2.15 | 2.07 | 0/9
KSSQSVLYESRNKNSCA | WVSTFES | QQYHRLPLS | nd / nd / nd | nd | 0/9
KSMQSVLYESRNINSVA | WASTRES | QQYHRYPLS | 1.47 / 1.49 / 1.49 | 1.48 | 2/9 (4.08)
KSSQSTLYESRNKNSVA | WASTRES | QRYHRLPLP | 1.52 / 1.43 / 1.54 | 1.49 | 2/9 (3.47)
KSSQSSKYPSRNKNSVA | WASTRES | QQYHRLPLS | 1.83 / 1.75 / 1.84 | 1.81 | 2/9 (4.46)
KSSQSVLYESRNKLSGA | WASTRES | QNYHRLPLS | nd / nd / nd | nd | 0/9
KSSISVLYESRNKNSVA | WASTRES | FQYHSLPLS | nd / nd / nd | nd | 0/9
KSSQFVLYESRNKNSVA | WASTEES | QQYHRLPLS | nd / nd / nd | nd | 0/9
KSSQSVLYCSRVKNSVA | WASTRES | QQYHRCPLS | nd / nd / nd | nd | 2/9 (4.21)
KSSQSVLSESRNKASVA | WASHRES | QQYHRLPLS | 1.06 / 0.98 / 0.66 | 0.90 | 0/9
KSSQSVLYESRAKNSVA | WASTRES | QPYHRLSLS | 1.57 / 1.64 / 1.82 | 1.68 | 0/9
KSSQSVLYESMNKGSVF | WASTRES | QQYHRLPLS | nd / nd / nd | nd | 0/9